From patent US9694016B2 (dated 2017)
Like-named read-outs stand apart in the source and are kept apart here.

Amino acid sequences for entries named in this document (tags omitted). A change or cut given only in a name is not applied to a line headed by its entry. Residues count along the entry.
UniProt P04049, 325-648: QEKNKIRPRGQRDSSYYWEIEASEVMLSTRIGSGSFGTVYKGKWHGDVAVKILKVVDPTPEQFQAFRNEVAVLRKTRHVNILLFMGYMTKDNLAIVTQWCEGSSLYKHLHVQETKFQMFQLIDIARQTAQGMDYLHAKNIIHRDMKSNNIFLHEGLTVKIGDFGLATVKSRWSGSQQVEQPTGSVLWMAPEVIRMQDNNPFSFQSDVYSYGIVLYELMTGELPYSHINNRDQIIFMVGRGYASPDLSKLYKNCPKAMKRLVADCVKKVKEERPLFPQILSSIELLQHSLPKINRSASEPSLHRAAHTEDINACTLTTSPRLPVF
UniProt P15056, whole entry V600E: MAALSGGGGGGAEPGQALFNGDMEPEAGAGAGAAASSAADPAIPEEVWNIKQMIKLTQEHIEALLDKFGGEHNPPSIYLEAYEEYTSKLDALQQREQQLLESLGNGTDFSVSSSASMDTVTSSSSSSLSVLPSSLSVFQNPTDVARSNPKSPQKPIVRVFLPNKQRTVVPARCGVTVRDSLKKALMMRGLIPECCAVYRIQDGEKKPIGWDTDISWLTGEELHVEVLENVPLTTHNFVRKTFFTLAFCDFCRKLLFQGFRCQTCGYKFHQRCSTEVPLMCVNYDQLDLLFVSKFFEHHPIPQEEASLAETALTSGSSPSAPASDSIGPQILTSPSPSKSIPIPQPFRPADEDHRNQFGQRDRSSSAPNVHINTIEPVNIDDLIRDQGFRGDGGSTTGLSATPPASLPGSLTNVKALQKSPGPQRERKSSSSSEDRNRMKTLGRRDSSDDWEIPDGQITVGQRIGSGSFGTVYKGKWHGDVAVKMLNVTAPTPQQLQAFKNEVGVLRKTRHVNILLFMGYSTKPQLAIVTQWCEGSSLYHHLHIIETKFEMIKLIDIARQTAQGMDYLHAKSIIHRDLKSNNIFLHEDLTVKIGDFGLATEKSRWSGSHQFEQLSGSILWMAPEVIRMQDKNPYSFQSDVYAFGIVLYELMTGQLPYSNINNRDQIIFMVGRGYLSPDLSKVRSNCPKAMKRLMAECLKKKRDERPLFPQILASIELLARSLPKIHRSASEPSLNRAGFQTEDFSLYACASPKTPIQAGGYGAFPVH

Assays:
[1] = target: C-Raf TR (truncated C-Raf protein, Δ1-324 deletion mutant) (Homo sapiens (Human), UniProt P04049); type: biochemical; conditions: read-out: C-Raf TR IC50; truncated C-Raf approximately 4 nM, ATP 1 uM, 60 min pre-incubation, 1 hour reaction
b-Raf (V600E) = b-Raf (V600E) (Homo sapiens (Human), UniProt P15056, V600E); conditions: read-out: b-Raf IC-50
[2] = Table 2, AlphaScreen, 3 hours reaction
[3] = AlphaScreen, 60 min pre-incubation, 3 hours reaction
[4] = AlphaScreen, 60 min pre-incubation, reaction 3 hours at room temperature

Compound Cc1ccc(NC(=O)c2ccnc(C(C)(C)C#N)c2)cc1-c1cc(N2CCOCC2)ncn1 [Example 2, 2-(2-cyanopropan-2-yl)-N-(4-methyl-3-(6-morpholinopyrimidin-4-yl)phenyl)isonicotinamide] has an IC50 [1] of 2.95 nM.

Cc1ccc(NC(=O)c2cccc(C(F)(F)F)c2)cc1-c1cc(N2CCS(=O)(=O)CC2)nc(N2CCOCC2)n1 [Example 6, N-(3-(6-(1,1-dioxidothiomorpholino)-2-morpholinopyrimidin-4-yl)-4-methylphenyl)-3-(trifluoromethyl)benzamide] gave an IC50 [1] of 0.408 nM.

In the case of Cc1ccc(NC(=O)c2cccc(C(F)(F)F)c2)cc1-c1cc(N2CCOCC2)nc(N2CCOCC2)n1 [Example 10, N-(3-(2,6-dimorpholinopyrimidin-4-yl)-4-methylphenyl)-3-(trifluoromethyl)benzamide], the IC50 [1] is reported as 0.118 nM.

For Cc1ccc(NC(=O)c2cccc(C(F)(F)F)c2)cc1-c1nc(N2CCOCC2)cc(N2CCOCC2)n1 [Example 13, N-(3-(4,6-dimorpholinopyrimidin-2-yl)-4-methylphenyl)-3-(trifluoromethyl)benzamide], the IC50 [1] was 0.533 nM.

For C=C(C)c1cc(-c2cc(NC(=O)c3cccc(C(F)(F)F)c3)ccc2C)nc(N2CCOCC2)n1 [Example 42, N-(4-methyl-3-(2-morpholino-6-(prop-1-en-2-yl)pyrimidin-4-yl)phenyl)-3-(trifluoromethyl)benzamide], the IC50 (b-Raf (V600E); [2]) was 1.6 nM.

In the case of O=C(Nc1c[nH]c(=O)c(-c2ccnc(N3CCOCC3)c2)c1)c1ccnc(C(F)(F)F)c1 [Example 90, N-(2′-morpholino-2-oxo-1,2-dihydro-[3,4′-bipyridin]-5-yl)-2-(trifluoromethyl)isonicotinamide], the IC50 (b-Raf (V600E); [2]) is reported as 25000 nM.

Compound Cc1ccc(NC(=O)c2cccc(C(F)(F)F)c2)cc1-c1cc(N2CCOCC2)ccn1 [Example 111, N-(4-methyl-3-(4-morpholinopyridin-2-yl)phenyl)-3-(trifluoromethyl)benzamide] has an IC50 [1] of 0.403 nM.

In the case of COc1ncc(-c2cc(NC(=O)c3cccc(C(F)(F)F)c3)cnc2C)cc1N1CCOCC1 [Example 127, N-(6′-methoxy-2-methyl-5′-morpholino-[3,3′-bipyridin]-5-yl)-3-(trifluoromethyl)benzamide], the IC50 (b-Raf (V600E); [2]) is reported as 1.9 nM.

In the case of CCN1CCN(c2cc(C(=O)Nc3ccc(C)c(-c4cc(N5CCOCC5)c(=O)n(C)c4)c3)cc(C(F)(F)F)c2)CC1 [Example 174, 3-(4-ethylpiperazin-1-yl)-N-(4-methyl-3-(1-methyl-5-morpholino-6-oxo-1,6-dihydropyridin-3-yl)phenyl)-5-(trifluoromethyl)benzamide], the IC50 (b-Raf (V600E); [2]) is reported as 6.9 nM.

With Cc1ccc(NC(=O)c2cc(C3CC3)nn2C)cc1-c1cc(N2CCOCC2)c(=O)n(C)c1 [Example 368, 3-cyclopropyl-1-methyl-N-(4-methyl-3-(1-methyl-5-morpholino-6-oxo-1,6-dihydropyridin-3-yl)phenyl)-1H-pyrazole-5-carboxamide] the IC50 (b-Raf (V600E); [2]) was 12.2 nM.

With Cc1ncc(NC(=O)c2cc(C(C)C)on2)cc1-c1cc(N2CCOCC2)c(=O)n(C)c1 [Example 379, N-(1′,2-dimethyl-5′-morpholino-6′-oxo-1′,6′-dihydro-[3,3′-bipyridin]-5-yl)-5-isopropylisoxazole-3-carboxamide] the IC50 (b-Raf (V600E); [2]) was 5.9 nM.

For Cc1nc(-c2cccc(NC(=O)c3ccc(C)c(-c4cc(N5CCOCC5)c(=O)n(C)c4)c3)c2)no1 [Example 438, 4-methyl-N-(3-(5-methyl-1,2,4-oxadiazol-3-yl)phenyl)-3-(1-methyl-5-morpholino-6-oxo-1,6-dihydropyridin-3-yl)benzamide], the IC50 (b-Raf (V600E); [3]) was 27.6 nM.

Compound Cc1ccc(NC(=O)c2ccnc(N(C)C)c2)cc1-c1cc(N2CCOCC2)c(=O)n(C)c1 [Example 452, 2-(dimethylamino)-N-(4-methyl-3-(1-methyl-5-morpholino-6-oxo-1,6-dihydropyridin-3-yl)phenyl)isonicotinamide] has an IC50 (b-Raf (V600E)) of 2.3 nM.

Cc1ccc(NC(=O)c2cccc(-c3nnco3)c2)cc1-c1cc(N2CCOCC2)n(C)c(=O)c1 [Example 493, N-(4-methyl-3-(1-methyl-6-morpholino-2-oxo-1,2-dihydropyridin-4-yl)phenyl)-3-(1,3,4-oxadiazol-2-yl)benzamide] gave an IC50 (b-Raf (V600E); [3]) of 4.1 nM.

Work on Cc1ccc(NC(=O)c2cccc(C(F)(F)F)c2)cc1-c1cc(N2CCOCC2)c(S(C)(=O)=O)nn1 [Example 602, N-(4-methyl-3-(6-(methylsulfonyl)-5-morpholinopyridazin-3-yl)phenyl)-3-(trifluoromethyl)benzamide] yielded an IC50 (b-Raf (V600E)) of 1.2 nM.

Cc1ncc(NC(=O)c2ccnc(C(C)(C)C#N)c2)cc1-c1cc(N2CCOCC2)nc(NCCO)n1 [Example 736, 2-(2-cyanopropan-2-yl)-N-(5-(2-((2-hydroxyethyl)amino)-6-morpholinopyrimidin-4-yl)-6-methylpyridin-3-yl)isonicotinamide] showed an IC50 (b-Raf (V600E); [3]) of 47.8 nM.

With Cc1ccc(NC(=O)c2ccnc(C(C)(C)C#N)c2)cc1-c1cc(N2CCOCC2)nc(NC[C@H](C)O)n1 [Example 739, (S)-2-(2-cyanopropan-2-yl)-N-(3-(2-((2-hydroxypropyl)amino)-6-morpholinopyrimidin-4-yl)-4-methylphenyl)isonicotinamide] the IC50 (b-Raf (V600E); [3]) was 4.1 nM.

Cc1ccc(NC(=O)c2ccnc(C(C)(C)C#N)c2)cc1-c1cc(N2CCOCC2)nc(NC[C@@H](C)O)n1 [Example 741, (R)-2-(2-cyanopropan-2-yl)-N-(3-(2-((2-hydroxypropyl)amino)-6-morpholinopyrimidin-4-yl)-4-methylphenyl)isonicotinamide] gave an IC50 (b-Raf (V600E); [3]) of 5.1 nM.

For Cc1ccc(NC(=O)c2ccnc(S(C)(=O)=O)c2)cc1-c1cc2[nH]cnc2c(N2CCOCC2)n1 [Example 821], the IC50 (b-Raf (V600E)) was 3.8 nM.

For Cc1ncc(NC(=O)c2cc(C(F)(F)F)ccn2)cc1-c1cc(N2CCOCC2)c2nccn2c1 [Example 876, N-(6-methyl-5-(8-morpholinoimidazo[1,2-a]pyridin-6-yl)pyridin-3-yl)-4-(trifluoromethyl)picolinamide], the IC50 (b-Raf (V600E)) was 2.4 nM.

With Cc1ncc(NC(=O)c2cc(C(C)(C)O)ccn2)cc1-c1cnc(OC(C)C)c(N2CCOCC2)c1 [Example 959, 4-(2-hydroxypropan-2-yl)-N-(6′-isopropoxy-2-methyl-5′-morpholino-[3,3′-bipyridin]-5-yl)picolinamide] the IC50 (b-Raf (V600E); [4]) was 19.4 nM.

Cc1ncc(NC(=O)c2ccnc(C(F)F)c2)cc1-c1cnc(OC2CC3(COC3)C2)c(N2CCOCC2)c1 [Example 965, N-(6′-(2-oxaspiro[3.3]heptan-6-yloxy)-2-methyl-5′-morpholino-[3,3′-bipyridin]-5-yl)-2-(difluoromethyl)isonicotinamide] gave an IC50 (b-Raf (V600E); [4]) of 1.87 nM.

For Cc1ncc(NC(=O)c2cccc(C(F)(F)F)c2)cc1-c1cnc(C=C2CCOCC2)c(N2CCOCC2)c1 [Example 994, N-(6′-((dihydro-2H-pyran-4(3H)-ylidene)methyl)-2-methyl-5′-morpholino-[3,3′-bipyridin]-5-yl)-3-(trifluoromethyl)benzamide], the IC50 (b-Raf (V600E); [4]) was 1.93 nM.

Cc1ccc(NC(=O)c2ccnc(C(C)(F)F)c2)cc1-c1cc(NC[C@@H](C)O)nc(N2CCOCC2)n1 [Example 1024] gave an IC50 (b-Raf (V600E); [4]) of 5.1 nM.

For Cc1ncc(NC(=O)c2cccc(C(F)(F)F)c2)cc1-c1cnc(OCCOCCO)c(N2CCOCC2)c1 [Example 1033, N-(6′-(2-(2-hydroxyethoxy)ethoxy)-2-methyl-5′-morpholino-[3,3-bipyridin]-5-yl)-3-(trifluoromethyl)benzamide], the IC50 (b-Raf (V600E); [4]) was 2.08 nM.

In the case of Cc1ncc(NC(=O)c2cccc(C(F)F)c2)cc1-c1cc(N2CCOCC2)nc(N2CCOCC2)c1 [Example 1121, 3-(difluoromethyl)-N-(2-methyl-2′,6′-dimorpholino-[3,4′-bipyridin]-5-yl)benzamide], the IC50 (b-Raf (V600E); [4]) is reported as 1.93 nM.

O=C(Nc1c[nH]c(=O)c(-c2ccnc(N3CCOCC3)c2)c1)c1ccnc(C(F)(F)F)c1 [Example 1172, N-(2′-morpholino-2-oxo-1,2-dihydro-[3,4′-bipyridin]-5-yl)-2-(trifluoromethyl)isonicotinamide] gave an IC50 (b-Raf (V600E); [4]) of 25000 nM.
